Measured values published in PMC7046148 (Scientific Reports, 2020).

Legend:
[1] = test system: XCL-1 hiPSC CRBN KO/KI; assay: LPM differentiation assay (FOXF1 high content imaging), XCL-1 CRBN KO/KI clone; assay type: cell-based, human; conditions: both engineered clones (CRBN KO/KI and SALL4^G416A) versus mock
[2] = test system: Gibco hiPSCs; assay: LPM differentiation assay (FOXF1 high content imaging), Gibco hiPSCs; conditions: thalidomide at 20 µM, atRA at 3 µM, during LPM differentiation

CC1=C(/C=C/C(C)=C/C=C/C(C)=C/C(=O)O)C(C)(C)CCC1 [atRA, all-trans retinoic acid]
right-shift in potency in engineered clones [1]: ~ 3 fold | reduction of %FOXF1+ cells via high content imaging [2]: 90%
